Only some compounds are listed: those with a hit (about 2.2% of all), similar ones and a draw of the others.
ERp5 block: inhibitors of ERp5-driven insulin aggregation, primary screen, biochemical, turbidity, absorbance 650 nm, single point; 90 min; Protein disulfide-isomerase A6 (Homo sapiens), Q15084; actives 0.05% (n = 350,000); inhibition, % at 9.99 µM;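 active = mean replicate inhibition above about 25%, with every replicate also reaching it, limit read from the data, passing the limit was not always enough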
S100A4 MyoIIA: inhibitors of S100A4-myosin IIA peptide binding, primary screen, biochemical, fluorescence polarization, TAMRA-MyoIIA peptide; AID 652163, 2013; Protein S100-A4 (Homo sapiens), P26447; actives 0.14% (n = 360,000); inhibition, % at 10.7 µM;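 active = mean inhibition of at least 70% across replicates, with every replicate also reaching that level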
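incubation = readout 5 min after mixing, signal stable up to 60 min | system = S100A4 monomer protein | buffer or medium = HEPES pH 7.2 with CaCl2, KCl, NaCl, DTT, Triton | benchmarks = neutral control DMSO, positive control TFP | also added = fluorescent myosin IIA peptide, 5 nM | compound dosing = one concentration per compound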
SIRT5 block: SIRT5 desuccinylase inhibitors, primary screen, biochemical, fluorescence imaging, single point, set 5; Purified SirT5, succinyl-peptide AMC, trypsin-coupled fluorescence; inhibition, % at 15 µM; actives 1.1% (n = 330,000); AID 652115, 2013; in the data active = inhibition above about 15%
FGF22 binding: binders of human FGF22 protein, primary screen, FGF22 synaptogenesis inhibitor project, biophysical, thermal shift, single point; Fibroblast growth factor 22 (Homo sapiens), Q9HCT0; recombinant FGF22 thermal shift, SYPRO orange fluorescence; percent of sucrose octasulfate shift, DMSO zero; activity (Tm shift, normalised), % at 9.99 µM; actives 1.5% (n = 340,000);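 active = mean Tm shift, scaled 0 neutral to 100 positive control, at about 1.3% or above, every replicate too, limit read from the data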
Yeast UUG start-1: modulators of yeast start codon fidelity, primary screen, whole organism, S. cerevisiae, single point, plate reader. S. cerevisiae UUG-firefly luciferase reporter, luminescence/redox ratio. activity score, % at 18.7 µM. actives 0.13% (n = 350,000);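 active = replicate mean at a twofold rise or more, about +100% in these data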;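 note: firefly luciferase made from a UUG start codon reports start codon fidelity; reporter light over untreated wells divided by growth signal over untreated wells; some hits fall short of that in this replicate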
PDI inh: inhibitors of human PDI, primary screen, biochemical, turbidity, single point, plate reader; AID 588391, 2011; PDI insulin aggregation turbidity, A650, 90 min; actives 0.052% (n = 350,000); Protein disulfide-isomerase (Homo sapiens), P07237; inhibition, % at 10 µM;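 active = mean inhibition across replicates of 30% or more, whatever share of single replicates reach that level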
Yeast UUG start-2: enhancers of UUG start codon usage in yeast, dose response, S. cerevisiae, UUG firefly luciferase, cherry-pick, set 2; shares compounds with Yeast UUG start-1; luminescence, 4 h; 100% means double the DMSO signal; activation, % at 38 µM; 540 tested, under 10 active; AID 652061, 2013;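 active = signal increase whose fitted curve reaches an absolute level of 40 at a concentration under 10 µM; inactive = activity opposite to the expected increase, or the rest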
The depositor's hits bear a star.

Sequences of proteins named here, by UniProt entry; tags and fusion partners are left off.
Protein disulfide-isomerase A6 (Homo sapiens), Q15084, UniProt Q15084, whole entry, looked up: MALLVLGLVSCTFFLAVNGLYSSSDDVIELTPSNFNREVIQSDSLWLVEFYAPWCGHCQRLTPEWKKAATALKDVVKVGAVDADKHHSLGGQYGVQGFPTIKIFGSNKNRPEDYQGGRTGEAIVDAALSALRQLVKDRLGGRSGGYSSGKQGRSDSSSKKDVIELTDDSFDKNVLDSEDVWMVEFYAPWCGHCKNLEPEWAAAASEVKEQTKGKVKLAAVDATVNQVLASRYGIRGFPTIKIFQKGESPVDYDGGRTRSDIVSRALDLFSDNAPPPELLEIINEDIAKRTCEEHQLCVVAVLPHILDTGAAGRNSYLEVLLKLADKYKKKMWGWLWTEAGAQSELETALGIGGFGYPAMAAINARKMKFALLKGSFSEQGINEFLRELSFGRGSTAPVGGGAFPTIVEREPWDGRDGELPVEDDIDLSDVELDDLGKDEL

How did CN(C)CCC#CC(O)(c1ccccc1)c1ccccc1 do in these assays?
Yeast UUG start-1: -6; PDI inh: -6

Results for CCN(CC)CC#CC(O)(c1ccccc1)c1ccccc1 ?
ERp5 block: -5; S100A4 MyoIIA: 19; SIRT5 block: -6; FGF22 binding: 0; PDI inh: 0; Yeast UUG start-2: 15

What do the screens show for `CN(C)C(=O)c1cccc(-c2ccccc2[C@@H]2[C@H](C#N)N(C(=O)C3CCC3)[C@H]2CO)c1`?
ERp5 block: -4; S100A4 MyoIIA: 0; SIRT5 block: -1

Results for CO[C@H]1CN(C)C(=O)c2ccc(NS(=O)(=O)c3ccccc3)cc2OC[C@@H](C)NC[C@H]1C ?
ERp5 block: -3; S100A4 MyoIIA: -2; SIRT5 block: -1; FGF22 binding: 1; Yeast UUG start-1: 5

Results for C[C@H](NC(=O)C[C@@H]1CC[C@H](NC(=O)Nc2ccc3c(c2)OCO3)[C@H](CO)O1)c1ccccc1 ?
ERp5 block: 4; S100A4 MyoIIA: -5; SIRT5 block: -3; FGF22 binding: 0; Yeast UUG start-1: -15

What do the screens show for `C[C@@H](NC(=O)C[C@H]1CC[C@H](NC(=O)C2CCOCC2)[C@H](CO)O1)c1ccccc1`?
ERp5 block: -2; S100A4 MyoIIA: -7; SIRT5 block: 2; FGF22 binding: 0; Yeast UUG start-1: -9

What do the screens show for `C[C@@H](NC(=O)C[C@@H]1CC[C@H](NC(=O)C2CCOCC2)[C@H](CO)O1)c1ccccc1`?
ERp5 block: -2; S100A4 MyoIIA: 4; SIRT5 block: -1; FGF22 binding: 0; Yeast UUG start-1: 171*; Yeast UUG start-2: inactive

How did C[C@@H](NC(=O)C[C@@H]1CC[C@H](NC(=O)Nc2ccc3c(c2)OCO3)[C@@H](CO)O1)c1ccccc1 do in these assays?
ERp5 block: 4; S100A4 MyoIIA: 7; SIRT5 block: 5; FGF22 binding: 0; Yeast UUG start-1: 127*; Yeast UUG start-2: inactive

How did O=C(C[C@@H]1C[C@@H]2c3cc(NC(=O)Nc4ccccc4)ccc3O[C@@H]2[C@H](CO)O1)NCc1ccccn1 do in these assays?
ERp5 block: 3; S100A4 MyoIIA: -19; SIRT5 block: -4; Yeast UUG start-1: -20

How did CCC(=O)N(C)C[C@H]1Oc2cc(C#CCC3CCCC3)ccc2S(=O)(=O)N([C@H](C)CO)C[C@H]1C do in these assays?
ERp5 block: -2; S100A4 MyoIIA: -2; SIRT5 block: 7; FGF22 binding: 0; Yeast UUG start-1: 0

What do the screens show for `C[C@@H]1CN([C@H](C)CO)S(=O)(=O)c2ccc(C#CCC3CCCC3)cc2O[C@@H]1CN(C)C(=O)CN(C)C`?
ERp5 block: 3; S100A4 MyoIIA: -2; SIRT5 block: -3; FGF22 binding: 0; Yeast UUG start-1: 129*; Yeast UUG start-2: inactive

What do the screens show for `CCC(=O)N(C)C[C@@H]1Oc2cc(C#CCC3CCCC3)ccc2S(=O)(=O)N([C@H](C)CO)C[C@H]1C`?
ERp5 block: -10; S100A4 MyoIIA: -1; SIRT5 block: 9; FGF22 binding: 0; Yeast UUG start-1: 18

How did C[C@H](CO)N1C[C@H](C)[C@H](CN(C)C(=O)CN(C)C)Oc2cc(C#CCC3CCCC3)ccc2S1(=O)=O do in these assays?
ERp5 block: -3; S100A4 MyoIIA: -3; SIRT5 block: -1; FGF22 binding: 0; Yeast UUG start-1: 107*; Yeast UUG start-2: inactive

How did CO[C@@H]1CN(C)C(=O)c2cc(NS(=O)(=O)CC(F)(F)F)ccc2OC[C@H](C)N(CC2CCCCC2)C[C@H]1C do in these assays?
ERp5 block: 17; S100A4 MyoIIA: -25; SIRT5 block: -4; FGF22 binding: 0

How did CN1C(=O)c2cc(NC(=O)c3cccs3)ccc2OC[C@@H]2O[C@@H](CC(=O)N3CCOCC3)CC[C@@H]21 do in these assays?
ERp5 block: -9; S100A4 MyoIIA: 4; SIRT5 block: 2; FGF22 binding: 0; Yeast UUG start-1: -5

Results for O=C(Nc1cnc2ccccc2c1)N1CCOCC1 ?
Yeast UUG start-1: 105*; PDI inh: 0; Yeast UUG start-2: 7

What do the screens show for `C#CCOCCOCCOCCNc1nc(N2CCN(C(=O)[C@H](CC(N)=O)n3cc(C(N)[C@H](C)CC)nn3)CC2)nc(N2CCN(C(=O)[C@H](CC(N)=O)n3cc(C(N)[C@@H](C)CC)nn3)CC2)n1` (stereo partly drawn)?
ERp5 block: 1; S100A4 MyoIIA: -6; FGF22 binding: 0; Yeast UUG start-1: 108*; PDI inh: 1; Yeast UUG start-2: -1

Results for O=C(NCCCN1CCCC1)c1cc2c(Cl)nc3ccccc3c2s1 ?
ERp5 block: -14; S100A4 MyoIIA: 1; SIRT5 block: 0; FGF22 binding: 0; Yeast UUG start-1: 486*; PDI inh: -16; Yeast UUG start-2: 5

How did C[C@@H]1CN([C@@H](C)CO)C(=O)c2cc(-c3cccnc3)cnc2O[C@H]1CN(C)C(=O)c1ccccc1F do in these assays?
ERp5 block: -6; S100A4 MyoIIA: -28; SIRT5 block: 0; FGF22 binding: 0; Yeast UUG start-1: 166*; Yeast UUG start-2: inactive

How did COc1ccccc1-c1cnc2c(c1)C(=O)N([C@@H](C)CO)C[C@@H](C)[C@@H](CN(C)Cc1ccncc1)O2 do in these assays?
ERp5 block: -1; S100A4 MyoIIA: 13; SIRT5 block: -3; FGF22 binding: 0; Yeast UUG start-1: 137*; Yeast UUG start-2: inactive

What do the screens show for `COc1ccccc1-c1cnc2c(c1)C(=O)N([C@H](C)CO)C[C@@H](C)[C@H](CN(C)Cc1ccncc1)O2`?
ERp5 block: -4; S100A4 MyoIIA: 6; SIRT5 block: 5; FGF22 binding: 0; Yeast UUG start-1: -9

What do the screens show for `COc1ccc(-c2cnc3c(c2)C(=O)N([C@H](C)CO)C[C@@H](C)[C@H](CN(C)Cc2cccnc2)O3)cc1`?
ERp5 block: 0; S100A4 MyoIIA: 39; SIRT5 block: 0; FGF22 binding: 0; Yeast UUG start-1: 16

Part of the list above in order of length of the SMILES, rising.
What do the screens show for `CCC(=O)N(C)C[C@@H]1Oc2cc(C#CCC3CCCC3)ccc2S(=O)(=O)N([C@H](C)CO)C[C@H]1C`?
ERp5 block: -10; S100A4 MyoIIA: -1; SIRT5 block: 9; FGF22 binding: 0; Yeast UUG start-1: 18

How did CO[C@@H]1CN(C)C(=O)c2cc(NS(=O)(=O)CC(F)(F)F)ccc2OC[C@H](C)N(CC2CCCCC2)C[C@H]1C do in these assays?
ERp5 block: 17; S100A4 MyoIIA: -25; SIRT5 block: -4; FGF22 binding: 0

What do the screens show for `C#CCOCCOCCOCCNc1nc(N2CCN(C(=O)[C@H](CC(N)=O)n3cc(C(N)[C@H](C)CC)nn3)CC2)nc(N2CCN(C(=O)[C@H](CC(N)=O)n3cc(C(N)[C@@H](C)CC)nn3)CC2)n1` (stereo partly drawn)?
ERp5 block: 1; S100A4 MyoIIA: -6; FGF22 binding: 0; Yeast UUG start-1: 108*; PDI inh: 1; Yeast UUG start-2: -1
